# Experimental data from patent publication US11001745B2, “Hydrocarbon recovery composition, method, and system” (THE SASKATCHEWAN RESEARCH COUNCIL, priority 2016, dated 2021).
# Assay: Thermal stability
# Type: physicochemical
# Settings: a few days
substance,measurement,value
"octyl phenol ethoxylate [OPE, reference compound]",Stability in water at high temperatures,partly decomposed
